Results on 2 compounds are retold here after ChEMBL document CHEMBL1151960, “(Nitrooxyacyloxy)methyl esters of aspirin as novel nitric oxide releasing aspirins” (J Med Chem, 2009).

The experiment relates to Aorta. Description: Vasodilatory activity in Wistar rat endothelium-denuded thoracic aortic ring assessed as inhibition of phenylephrine-induced contraction […]. It counts as functional, tissue-based. In a few lines: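 Endothelium-denuded rat aorta strips are precontracted with phenylephrine. At the plateau, cumulative concentrations of test agent in DMSO are added. Relaxation is recorded isometrically and reported as EC50 ± SEM (μM). In a separate series, 1 μM ODQ is added 5 min before contraction, giving at least 30 min of preincubation before the vasodilator. At least five experiments.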

In the case of `O=C(O)CCCCC(CO[N+](=O)[O-])O[N+](=O)[O-]` (configuration not stated), the Activity entry was “Dose-dependent effect”.

As for `O=C(O)CCCC(CO[N+](=O)[O-])O[N+](=O)[O-]` (configuration not stated), the Activity result is “Dose-dependent effect”.
